# The list shows a part of the results, in another mix than the full data. Inconclusive results are not listed. Active and inactive are the calls of the source. The call rests on the fitted dose curve; in most records, active means well fitted falling curve with a large enough effect; inconclusive means small, poorly fitted or top-dose-only effect; inactive means no such curve, though single readings can be large or run the other way.
# The chains behind the UniProt entries cited, without tags or fusion partners.
# UniProt P80244, whole entry: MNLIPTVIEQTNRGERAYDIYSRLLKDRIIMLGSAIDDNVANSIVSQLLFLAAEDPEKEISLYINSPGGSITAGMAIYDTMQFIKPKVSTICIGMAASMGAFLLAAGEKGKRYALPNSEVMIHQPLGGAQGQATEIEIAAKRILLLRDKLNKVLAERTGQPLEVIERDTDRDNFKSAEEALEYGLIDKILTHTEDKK
# Molecular target: ATP-dependent Clp protease proteolytic subunit (Bacillus subtilis (strain 168)) (UniProt P80244)
# Test: qHTS Assay for Activators of ClpP; further: the source files actives as falling curves though it sought activators and does not explain the sign; nearly all actives have a fitted effect of over 65% in size
# Details: purified B. subtilis ClpP, FRET peptide cleavage, 20 min; at 57.5 µM (top of the series)
row,SMILES,"activity change, negative = active"
1,CCc1ccc(OP(C)(=O)Nc2cccnc2)cc1 (stereo unspecified),inactive: -2.1%
